This passage reports IC50 results from patent US9725445B2, “Cycloalkyl nitrile pyrazolo pyridones as Janus kinase inhibitors” (Merck Sharp & Dohme Corp., priority 2013, dated 2017).

By UniProt entry, the sequences of proteins in these tests, tags left out. Residues count along the entry.
UniProt P23458, 875-1153: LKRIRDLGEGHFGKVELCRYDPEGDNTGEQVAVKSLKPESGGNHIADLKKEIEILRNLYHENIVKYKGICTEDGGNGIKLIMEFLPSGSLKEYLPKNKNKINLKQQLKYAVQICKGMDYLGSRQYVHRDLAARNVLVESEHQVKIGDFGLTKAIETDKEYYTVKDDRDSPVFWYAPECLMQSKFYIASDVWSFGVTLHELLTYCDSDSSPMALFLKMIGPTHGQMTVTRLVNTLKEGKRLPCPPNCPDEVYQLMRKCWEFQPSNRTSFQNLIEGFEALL
UniProt O60674, 849-1124: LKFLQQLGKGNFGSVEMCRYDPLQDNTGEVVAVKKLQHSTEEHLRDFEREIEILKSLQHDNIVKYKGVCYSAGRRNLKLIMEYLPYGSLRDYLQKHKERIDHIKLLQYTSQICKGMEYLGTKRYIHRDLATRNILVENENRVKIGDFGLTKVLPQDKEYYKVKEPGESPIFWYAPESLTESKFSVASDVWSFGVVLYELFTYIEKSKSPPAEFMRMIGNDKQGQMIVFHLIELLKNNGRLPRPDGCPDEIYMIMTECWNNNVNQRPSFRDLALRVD

One test concerns the target JAK1 (Homo sapiens (Human), UniProt P23458). The test can be described thus: Jak biochemical HTRF assay, JAK1. The settings on record: recombinant GST-tagged catalytic domain. The procedure: Jak Biochemical HTRF Assay Protocol
The ability of compounds to inhibit the activity of JAK1, JAK2, JAK3, and Tyk2 was measured using a recombinant purified GST-tagged catalytic domain for each enzyme (Invitrogen JAK1 #M4290, JAK2 #M4290, JAK3 #M4290, Tyk2 #M4290) in an HTRF format biochemical assay. […] The basic assay protocol is as follows: First, 250 nL of diluted compounds in DMSO were dispensed into the wells of a dry 384-well Black plate (Greiner #781076) using a Labcyte Echo 555 acoustic dispenser. Subsequent reagent additions employed an Agilent Bravo. […] After equilibration, 2 μL of 10×ATP in 1× assay buffer was added to initiate the kinase reaction and the plates were shaken and then incubated at room temperature for 120 minutes. […] Plates were shaken and centrifuged and then incubated 60 minutes at room temperature and then read on a Perkin Elmer Envision (λex=337 nm, λem=665 and 615 nm, TRF delay time=20 μs). HTRF signal=10,000*665 nm reading/615 nm reading. After normalization to untreated controls, the percent inhibition of the HTRF signal at each compound concentration was calculated. The plot of percent inhibition versus the log of compound concentration was fit with a 4-parameter dose response equation to calculate IC50 values.
Final Reaction Conditions were:
Examples of the instant invention were evaluated in JAK1 and JAK2 in vitro binding assays.
For orientation: Time-resolved FRET reads energy transfer from a long-lived donor to a nearby acceptor.

A further test has as its target JAK2 (Homo sapiens (Human), UniProt O60674). Briefly: Jak biochemical HTRF assay, JAK2. The settings on record: recombinant GST-tagged catalytic domain.

The IC50 is the concentration needed to halve the response being measured. `CC(C)(C)S(=O)(=O)c1ccc(Nc2nn([C@H]3CCCCC[C@@H]3C#N)c3cc[nH]c(=O)c23)cc1` (single isomer, unassigned) [Example 3-167, (1S,2S or 1R,2R)-2-(3-{[4-(tert-butylsulfonyl)phenyl]amino}-4-oxo-4,5-dihydro-1H-pyrazolo[4,3-c]pyridin-1-yl)cycloheptanecarbonitrile]: the IC50 at JAK1 worked out at 6.9 nM; at JAK2, 8.6 nM.
Turning to `CC(C)(C)S(=O)(=O)c1ccc(Nc2nn([C@@H]3CCCCC[C@H]3C#N)c3cc[nH]c(=O)c23)cc1` (single isomer, unassigned) [Example 3-168, (1R,2R or 1S,2S)-2-(3-{[4-(tert-butylsulfonyl)phenyl]amino}-4-oxo-4,5-dihydro-1H-pyrazolo[4,3-c]pyridin-1-yl)cycloheptanecarbonitrile], the figures for the IC50 at JAK1 and at JAK2 were 0.17 nM and 0.34 nM, respectively.
For the molecule `CC(C)(C)S(=O)(=O)c1ccc(Nc2nn([C@H]3CCCCC[C@H]3C#N)c3cc[nH]c(=O)c23)cc1` (single isomer, unassigned) [Example 3-169, (1R,2S or 1S,2R)-2-(3-{[4-(tert-butylsulfonyl)phenyl]amino}-4-oxo-4,5-dihydro-1H-pyrazolo[4,3-c]pyridin-1-yl)cycloheptanecarbonitrile], the IC50 at JAK1 was 1.2 nM; on JAK2 it was 0.95 nM.
For `CC(C)(C)S(=O)(=O)c1ccc(Nc2nn([C@@H]3CCCCC[C@@H]3C#N)c3cc[nH]c(=O)c23)cc1` (single isomer, unassigned) [Example 3-170, (1S,2R or 1R,2S)-2-(3-{[4-(tert-butylsulfonyl)phenyl]amino}-4-oxo-4,5-dihydro-1H-pyrazolo[4,3-c]pyridin-1-yl)cycloheptanecarbonitrile] the same measures were 2.4 nM and 1.7 nM.
Turning to `N#C[C@H]1CCCC[C@@H]1n1nc(Nc2ccc3c(c2)C(O)C2(CCOCC2)S3(=O)=O)c2c(=O)[nH]ccc21` (single isomer, unassigned) [Example 15-65, (1S,2S)-2-(3-{[(3S or 3R)-3-hydroxy-1,1-dioxido-2′,3′,5′,6′-tetrahydro-3H-spiro[1-benzothiophene-2,4′-pyran]-5-yl]amino}-4-oxo-4,5-dihydro-1H-pyrazolo[4,3-c]pyridin-1-yl)cyclohexanecarbonitrile], the IC50 at JAK1 came to 1.1 nM; on JAK2, 0.41 nM.
As to `N#C[C@H]1CCCC[C@@H]1n1nc(Nc2ccc3c(c2)C(O)C2(CCOCC2)S3(=O)=O)c2c(=O)[nH]ccc21` (single isomer, unassigned) [Example 15-66, (1S,2S)-2-(3-{[(3R or 3S)-3-hydroxy-1,1-dioxido-2′,3′,5′,6′-tetrahydro-3H-spiro[1-benzothiophene-2,4′-pyran]-5-yl]amino}-4-oxo-4,5-dihydro-1H-pyrazolo[4,3-c]pyridin-1-yl)cyclohexanecarbonitrile], the IC50 was 0.11 nM at JAK1 and 0.27 nM at JAK2.
`Cc1cc(Nc2nn([C@H]3CC(F)(F)C[C@H]3C#N)c3cc[nH]c(=O)c23)ccc1C(=O)N1CCCC1` (single isomer, unassigned) [Example 22-6, (1R,2S or 1S,2R)-4,4-difluoro-2-(3-{[3-methyl-4-(pyrrolidin-1-ylcarbonyl)phenyl]amino}-4-oxo-4,5-dihydro-1H-pyrazolo[4,3-c]pyridin-1-yl)cyclopentanecarbonitrile]: the IC50 at JAK1 was found to be 114 nM; at JAK2, 33 nM.
For `Cc1cc(Nc2nn([C@@H]3CC(F)(F)C[C@H]3C#N)c3cc[nH]c(=O)c23)ccc1C(=O)N1CCCC1` (single isomer, unassigned) [Example 22-7, (1R,2R or 1S,2S)-4,4-difluoro-2-(3-{[3-methyl-4-(pyrrolidin-1-ylcarbonyl)phenyl]amino}-4-oxo-4,5-dihydro-1H-pyrazolo[4,3-c]pyridin-1-yl)cyclopentanecarbonitrile] the same measures were 0.28 nM and 0.51 nM.
With `Cc1cc(Nc2nn([C@H]3CC(F)(F)C[C@@H]3C#N)c3cc[nH]c(=O)c23)ccc1C(=O)N1CCCC1` (single isomer, unassigned) [Example 22-8, (1S,2S or 1R,2R)-4,4-difluoro-2-(3-{[3-methyl-4-(pyrrolidin-1-ylcarbonyl)phenyl]amino}-4-oxo-4,5-dihydro-1H-pyrazolo[4,3-c]pyridin-1-yl)cyclopentanecarbonitrile], the figures for the IC50 on JAK1 and on JAK2 were 19 nM and 17 nM, respectively.
